Drawing on patent US4614714A, “Use of novel L-glutamic acid oxidase” (priority 1982, dated 1986), this text covers Km for one substance.

The series deals with N[C@@H](CCC(=O)O)C(=O)O. Description: purified protein, by the assay type. The settings on record: other: pH 7.4, 30.0 °C.

In general, Km refers to the concentration of substrate that gives half-maximal velocity. For the substance “novel L-glutamic acid oxidase (Streptomyces sp.)”, the Km was 210 µM.
